{"source": "patent US10882853B2", "key": {"[1]": {"tested_on": "human lung adenocarcinoma cells HCC78", "assay": "Inhibition on the proliferation of tumor cells (CCK8), HCC78", "conditions": "read-out: HCC78 IC50, Table 3 (FIG. 1), 72 h"}, "[2]": {"tested_on": "human ovarian cancer cells SK-OV-3", "assay": "Inhibition on the proliferation of tumor cells (CCK8), SK-OV-3", "conditions": "read-out: SK-OV-3 IC50, 72 h"}, "[3]": {"tested_on": "human colon cancer cells HCT116", "assay": "Inhibition on the proliferation of tumor cells (CCK8), HCT116", "conditions": "read-out: HCT116 IC50, 72 h"}, "[4]": {"tested_on": "human lung adenocarcinoma cells A549", "assay": "Inhibition on the proliferation of tumor cells (CCK8), A549", "conditions": "read-out: A549 IC50, 72 h"}}}
{"smiles": "COc1cc2c(Oc3ccc(NC(=O)C4(C(=O)Nc5ccc(F)cc5)CC4)cc3F)ccnc2cc1OCCC[N+]1([O-])CCOCC1", "values": [{"measurement": "IC50", "setting": "[1]", "result": 0.118, "unit": "µM"}, {"measurement": "IC50", "setting": "[2]", "result": 11.6, "unit": "µM"}, {"measurement": "IC50", "setting": "[3]", "result": 3.1, "unit": "µM"}, {"measurement": "IC50", "setting": "[4]", "result": 4.92, "unit": "µM"}]}
